Measurements taken from ChEMBL document CHEMBL3244068 (J Med Chem, 1978).

Organism: Rattus norvegicus
Assay: Toxicity in rat allografted with rat Walker 256 cells
Format: organism-based

SMILES | log1/CLD50
NS(=O)(=O)c1ccc(N(CCCl)CCCl)cc1 | 2.94
Nc1ccc(N(CCCl)CCCl)cc1 | 4.82
CC(=O)Nc1ccc(N(CCBr)CCBr)cc1 | 4.82
O=Cc1ccc(N(CCCl)CCCl)cc1 | 2.78
Oc1ccc(N(CCBr)CCBr)cc1 | 5
Oc1ccc(N(CCCl)CCCl)cc1 | 4.07
O=C(O)c1ccc(N(CCCl)CCCl)cc1 | 3.03
CC(=O)Sc1ccc(N(CCCl)CCCl)cc1 | 3.16
O=C(O)c1ccc(N(CCBr)CCBr)cc1 | 3.55
ICCN(CCI)c1ccccc1 | 3.85
CC(=O)Nc1ccc(N(CCI)CCI)cc1 | 4.5
NS(=O)(=O)c1ccc(N(CCBr)CCBr)cc1 | 3.13
BrCCN(CCBr)c1ccccc1 | 4.4
CC(=O)Nc1ccc(N(CCCl)CCCl)cc1 | 3.99
NC(=O)c1ccc(N(CCCl)CCCl)cc1 | 2.92

Tested on: not listed separately
Assay: Ratio of LD50 for rat allografted with rat Walker 256 cells to ED90 for rat Walker 256 cells allografted in rat

SMILES | Ratio
Oc1ccc(N(CCBr)CCBr)cc1 | 3.5
